Laboratory results from patent US9656988B2 (Pharmacyclics LLC, priority 2013, dated 2017).
Read-outs that look alike come from different tables or passages of the source.

Chains of the proteins cited; added tags and fusions are not shown. Lines headed by an entry give the natural chain unless they say otherwise; changes in a name come on top.
UniProt Q06187: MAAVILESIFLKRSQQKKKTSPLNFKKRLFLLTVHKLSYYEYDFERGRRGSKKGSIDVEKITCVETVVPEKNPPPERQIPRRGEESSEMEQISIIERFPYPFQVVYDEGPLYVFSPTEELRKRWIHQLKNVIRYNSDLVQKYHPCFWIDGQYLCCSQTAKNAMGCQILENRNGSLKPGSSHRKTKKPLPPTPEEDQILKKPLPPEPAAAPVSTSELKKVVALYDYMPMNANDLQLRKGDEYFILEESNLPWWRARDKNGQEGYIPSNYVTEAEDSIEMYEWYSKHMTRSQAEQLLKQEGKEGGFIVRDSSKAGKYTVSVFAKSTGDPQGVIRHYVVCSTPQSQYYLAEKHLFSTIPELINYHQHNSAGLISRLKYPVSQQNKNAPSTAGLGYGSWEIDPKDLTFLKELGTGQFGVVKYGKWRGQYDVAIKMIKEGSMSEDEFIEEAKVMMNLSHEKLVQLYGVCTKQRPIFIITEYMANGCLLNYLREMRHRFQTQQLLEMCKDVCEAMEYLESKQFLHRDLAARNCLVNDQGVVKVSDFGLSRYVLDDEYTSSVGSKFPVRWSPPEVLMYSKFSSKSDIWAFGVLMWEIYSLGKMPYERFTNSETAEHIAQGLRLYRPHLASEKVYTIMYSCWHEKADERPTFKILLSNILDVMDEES

Target: BTK (Homo sapiens (Human), UniProt Q06187)
Assay: Btk in vitro inhibitory activity (one of Method A TR-FRET, Method B electrophoretic mobility shift, Method C radiometric filter binding)
Format: biochemical
[1] = determined using one of the methods of Example 355a, 355b and 355c, read-out: BTK IC50

Row | IC50 [1] | IC50 (read-out: Btk (IC50)) | IC50 (Btk (IC50)) | Compound
1 | 10 to 100 nM | 10 to 100 nM | – | Cc1csc(C(=O)N[C@@H]2CCCN(c3nnc(C(N)=O)c(Nc4ccc(C(=O)N5CCOCC5)cc4)n3)C2)n1 [Example 98, (R)—N-(1-(6-carbamoyl-5-(4-(morpholine-4-carbonyl)phenylamino)-1,2,4-triazin-3-yl)piperidin-3-yl)-4-methylthiazole-2-carboxamide]
2 | 10 to 100 nM | – | – | NC(=O)c1nnc(N2CCC[C@@H](NS(=O)(=O)C3CC3)C2)nc1Nc1ccc(C(=O)N2CCOCC2)cc1 [Example 40, (R)-3-(3-(cyclopropanesulfonamido)piperidin-1-yl)-5-(4-(morpholine-4-carbonyl)phenylamino)-1,2,4-triazine-6-carboxamide]
3 | 100 to 1000 nM | – | – | CC(C)N[C@@H]1CCCN(c2nnc(C(N)=O)c(Nc3ccc(C(=O)N4CCOCC4)cc3)n2)C1 [Example 42, (R)-3-(3-(isopropylamino)piperidin-1-yl)-5-(4-(morpholine-4-carbonyl)phenylamino)-1,2,4-triazine-6-carboxamide]
4 | 100 to 1000 nM | 100 to 1000 nM | – | CN(C)C(=O)N[C@@H]1CCCN(c2cnc(C(N)=O)c(Nc3ccc(C4CCCCC4)cc3)n2)C1 [Example 212, (R)-3-(4-cyclohexylphenylamino)-5-(3-(3,3-dimethylureido)piperidin-1-yl)pyrazine-2-carboxamide]
5 | 100 to 1000 nM | – | – | NC(=O)c1nnc(N2CCC[C@@H](NC3CCCC3)C2)nc1Nc1ccc(C(=O)N2CCOCC2)cc1 [Example 43, (R)-3-(3-(cyclopentylamino)piperidin-1-yl)-5-(4-(morpholine-4-carbonyl)phenylamino)-1,2,4-triazine-6-carboxamide]
6 | 100 to 1000 nM | – | 100 to 1000 nM | C[C@H]1[C@H](NC(=O)c2ccccc2)CCCN1c1cnc(C(N)=O)c(Nc2ccc(C3CCN(C4CCCC4)CC3)cc2)n1 [Example 235, 5-((2S,3R)-3-benzamido-2-methylpiperidin-1-yl)-3-(4-(1-cyclopentylpiperidin-4-yl)phenylamino)pyrazine-2-carboxamide]
7 | 10 to 100 nM | 10 to 100 nM | – | CN(C)C(=O)N[C@@H]1CCCN(c2cnc(C(N)=O)c(Nc3ccc(C4CCN(c5ccccc5)CC4)cc3)n2)C1 [Example 211, (R)-5-(3-(3,3-dimethylureido)piperidin-1-yl)-3-(4-(1-phenylpiperidin-4-yl)phenylamino)pyrazine-2-carboxamide]
8 | < 10 nM | < 10 nM | – | C[C@@H]1[C@H](NC(=O)c2ccccc2)CCCN1c1cnc(C(N)=O)c(Nc2ccc(C3CCN(C4CCCC4)CC3)cc2)n1 [Example 234, 5-((2R,3R)-3-benzamido-2-methylpiperidin-1-yl)-3-(4-(1-cyclopentylpiperidin-4-yl)phenylamino)pyrazine-2-carboxamide]
9 | 100 to 1000 nM | 100 to 1000 nM | – | NC(=O)c1ncc(N2CCC[C@@H](N)C2)nc1Nc1ccc(C2CCN(C3CC3)CC2)cc1 [Example 308, (R)-5-(3-aminopiperidin-1-yl)-3-(4-(1-cyclopropylpiperidin-4-yl)phenylamino)pyrazine-2-carboxamide]
10 | 10 to 100 nM | – | – | CC(=O)N1CCC(C(=O)N[C@@H]2CCCN(c3nnc(C(N)=O)c(Nc4ccc(C(=O)N5CCOCC5)cc4)n3)C2)CC1 [Example 34, (R)-3-(3-(1-acetylpiperidine-4-carboxamido)piperidin-1-yl)-5-(4-(morpholine-4-carbonyl)phenylamino)-1,2,4-triazine-6-carboxamide]
11 | 10 to 100 nM | 10 to 100 nM | – | Cc1ccc(C(=O)N[C@@H]2CCCN(c3nnc(C(N)=O)c(Nc4ccc(C(=O)N5CCOCC5)cc4)n3)C2)s1 [Example 87, (R)-3-(3-(5-methylthiophene-2-carboxamido)piperidin-1-yl)-5-(4-(morpholine-4-carbonyl)phenylamino)-1,2,4-triazine-6-carboxamide]
12 | < 10 nM | < 10 nM | – | NC(=O)c1ncc(N2CCC[C@@H](N3CCCC3=O)C2)nc1Nc1ccc(C2CCN(C3CCCC3)CC2)cc1 [Example 306, (R)-3-(4-(1-cyclopentylpiperidin-4-yl)phenylamino)-5-(3-(2-oxopyrrolidin-1-yl)piperidin-1-yl)pyrazine-2-carboxamide]

Continued, compound first:

Row | Compound | IC50 [1] | IC50 (read-out: Btk (IC50)) | IC50 (Btk (IC50))
13 | Cc1cnc(C(=O)N[C@@H]2CCCN(c3nnc(C(N)=O)c(Nc4ccc(C(=O)N5CCOCC5)cc4)n3)C2)s1 [Example 92, (R)—N-(1-(6-carbamoyl-5-(4-(morpholine-4-carbonyl)phenylamino)-1,2,4-triazin-3-yl)piperidin-3-yl)-5-methylthiazole-2-carboxamide] | < 10 nM | < 10 nM | –
14 | NC(=O)c1nnc(N2CCC[C@@H](N)C2)nc1Nc1ccc(C(=O)N2CCOCC2)cc1 [Example 1, (R)-3-(3-aminopiperidin-1-yl)-5-(4-(morpholine-4-carbonyl)phenylamino)-1,2,4-triazine-6-carboxamide] | 1000 to 10000 nM | – | –
15 | N#CCC(=O)N[C@@H]1CCCN(c2nnc(C(N)=O)c(Nc3ccc(C(=O)N4CCOCC4)cc3)n2)C1 [Example 27, (R)-3-(3-(2-cyanoacetamido)piperidin-1-yl)-5-(4-(morpholine-4-carbonyl)phenylamino)-1,2,4-triazine-6-carboxamide] | 10 to 100 nM | – | –
16 | NC(=O)c1nnc(N2CCC[C@@H](NC(=O)C3CCC3)C2)nc1Nc1ccc(C(=O)N2CCOCC2)cc1 [Example 26, (R)-3-(3-(cyclobutanecarboxamido)piperidin-1-yl)-5-(4-(morpholine-4-carbonyl)phenylamino)-1,2,4-triazine-6-carboxamide] | 10 to 100 nM | – | –
17 | C=CC(=O)N[C@@H]1CCCN(c2nnc(C(N)=O)c(Nc3ccc(C(=O)N4CCOCC4)cc3)n2)C1 [Example 22, (R)-3-(3-acrylamidopiperidin-1-yl)-5-(4-(morpholine-4-carbonyl)phenylamino)-1,2,4-triazine-6-carboxamide] | < 10 nM | – | –
18 | CCC(=O)N[C@@H]1CCCN(c2nnc(C(N)=O)c(Nc3ccc(C(=O)N4CCOCC4)cc3)n2)C1 [Example 21, (R)-5-(4-(morpholine-4-carbonyl)phenylamino)-3-(3-propionamidopiperidin-1-yl)-1,2,4-triazine-6-carboxamide] | 10 to 100 nM | – | –
19 | CCn1nnc2cc(C(=O)N[C@@H]3CCCN(c4nnc(C(N)=O)c(Nc5ccc(C(=O)N6CCOCC6)cc5)n4)C3)ccc21 [Example 100, (R)—N-(1-(6-carbamoyl-5-(4-(morpholine-4-carbonyl)phenylamino)-1,2,4-triazin-3-yl)piperidin-3-yl)-1-ethyl-1H-benzo[d][1,2,3]triazole-5-carboxamide] | < 10 nM | < 10 nM | –
20 | CN1CCN([C@@H]2CCCN(c3cnc(C(N)=O)c(Nc4ccc(C5(C)CCN(C6COC6)CC5)cc4)n3)C2)C1=O [Example 265, (R)-3-(4-(4-methyl-1-(oxetan-3-yl)piperidin-4-yl)phenylamino)-5-(3-(3-methyl-2-oxoimidazolidin-1-yl)piperidin-1-yl)pyrazine-2-carboxamide] | < 10 nM | – | –
21 | CC(C)(C)c1ccc(C(=O)N[C@@H]2CCCN(c3nnc(C(N)=O)c(Nc4ccc(C(=O)N5CCOCC5)cc4)n3)C2)cc1 [Example 2, (R)-3-(3-(4-tert-butylbenzamido)piperidin-1-yl)-5-(4-(morpholine-4-carbonyl)phenylamino)-1,2,4-triazine-6-carboxamide] | < 10 nM | – | –
22 | CN1CCN([C@@H]2CCCN(c3cnc(C(N)=O)c(Nc4ccc(C5(C)CCN(C6CCC6)CC5)cc4)n3)C2)C1=O [Example 212] | – | < 10 nM | –
23 | NC(=O)c1nnc(N2CCC[C@@H](NC(=O)c3cnc4ccccc4c3)C2)nc1Nc1ccc(C(=O)N2CCOCC2)cc1 [Example 18, (R)—N-(1-(6-carbamoyl-5-(4-(morpholine-4-carbonyl)phenylamino)-1,2,4-triazin-3-yl)piperidin-3-yl)quinoline-3-carboxamide] | 10 to 100 nM | – | –
24 | CN1CCN([C@@H]2CCCN(c3cnc(C(N)=O)c(Nc4ccc(C5(C)CCN(C6CCC6)CC5)cc4)n3)C2)C1=O [Example 266] | < 10 nM | – | –
